# DT40 TDP1 no CPT: qHTS for Inhibitors of human tyrosyl-DNA phosphodiesterase 1 (TDP1): qHTS in cells in absence of CPT; DT40 Tdp1-/- hTDP1 cells, no CPT, ATP luminescence, 48 h; Potency, µM (top dose mostly 46.2 µM), for inactives: at the top dose activity change, negative = growth inhibition, most hits filed as inhibitors; 15% of 420,000 active; also: potency is read from the fitted curve at half-maximal effect; % is scaled to controls: 0 for no effect and ±100 for the full control effect; nearly all actives have a fitted effect of over 55% in size
#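 Compound effects on proliferation are scored in DT40 Tdp1-/-;hTDP1 cells in the absence of CPT. ATP levels (CellTiter-Glo luminescence) are recorded after a ≥48 hr, 37 °C incubation.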
# DT40 TDP1 CPT: growth inhibition of DT40 Tdp1-/-;hTDP1 cells with camptothecin (screen for TDP1 inhibitors) | chicken DT40 Tdp1-/-;hTDP1 cells + 20 nM CPT, ATP luminescence, 48 h | 12% of 420,000 active | Potency, µM (highest dose often 46.2 µM), for the others: at the highest dose activity change, negative = growth inhibition, usual class: inhibitors; also: potency is read from the fitted curve at half-maximal effect; % is scaled to controls: 0 for no effect and ±100 for the full control effect; nearly all actives have a fitted effect of over 55% in size
#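 Cell growth measured by CellTiter-Glo luminescence after a minimum 48 h, 37 C compound exposure with 20 nM CPT in Tdp1-knockout DT40 cells stably expressing hTDP1, seeded 400/well; qHTS titration format.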
# miR-21 reporter: miR-21 reporter, rising signal; HeLa miR-21 FLuc reporter, luciferase, 48 h; Potency, µM (top dose mostly 38.3 µM), without a hit: at the top dose reporter change, positive = more light; 340,000 tested, under 10 active; active = well fitted rising curve with a large enough effect; inconclusive = small, poorly fitted or top-dose-only effect; inactive = no such curve, though single readings can be large or run the other way;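 note: % of control where 0% means no effect; miR-21 action dims this reporter so a rising signal means less miR-21 action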
#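 HeLa miR-21-FLuc reporter line, endogenous miR-21; 2000 cells/well in DMEM/10% FBS; compound titration up to ~40uM final, 48 h, 37 degree Celsius; luciferase detection reagent, 15 min lysis, CCD luminescence.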
# uPA generation: blocks generation of uPA at the cell surface; cell surface uPA generation assay, qHTS; Potency, µM (titrated, usually from 38.3 µM), for the others: at the highest dose activity change, negative = inhibition, most hits filed as inhibitors; 0.31% of 330,000 active; AID 540303; active = well fitted inhibition curve with a large enough effect; inconclusive = small, poorly fitted or top-dose-only effect; inactive = no such curve, though single readings can be large or run the other way; tested in mouse RAW 264.7 cells; also: potency is read from the fitted curve at half-maximal effect; % is scaled to controls: 0 for no effect and ±100 for the full control effect; nearly all actives have a fitted effect of over 55% in size
# TDP1 block: TDP1 (human) enzyme inhibition. Potency, µM (top dose mostly 130 µM), for inactives: at the top dose activity change, negative = inhibition, hits mostly inhibitors. Q9NUW8. 0.28% of 350,000 active. AID 485290. recombinant TDP1, AlphaScreen DNA substrate cleavage; also: potency is read from the fitted curve at half-maximal effect; % is scaled to controls: 0 for no effect and ±100 for the full control effect; nearly all actives have a fitted effect of over 40% in size
#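 Recombinant human Tdp1 (E. coli-expressed, 1 nM final) preincubated with compounds 15 min at room temperature, then 5'-biotin/3'-phosphotyrosine-FITC DNA substrate (15 nM final) added for 5 min. AlphaScreen beads (10 ug/ml final) added 10 min; cleavage lowers signal.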
# Starred values were filed as active, the others as inactive; ? = inconclusive; / = no result given; ! = a repeat was not active. Compounds with a hit are over-represented: about 16% of the library has one in this group of screens. Unless noted, calls follow the shape of the dose curve; as a rule, active = well fitted curve in the direction sought with a large enough effect; inconclusive = small, poorly fitted or top-dose-only effect, or another doubt; inactive = no such curve, though single readings can be large; an effect the other way counts as inactive or inconclusive.
nr	mol	DT40 TDP1 no CPT	DT40 TDP1 CPT	miR-21 reporter	uPA generation	TDP1 block
1	CCC(C(=O)NC1CCC(C)CC1)n1nc(C)c2sc3ccccc3c2c1=O (stereo not drawn)	14.6µM*	14.6µM*	-15.6%	/	-2.9%
2	CCC(C(=O)NCCCN1CC(C)CC(C)C1)n1nc(C)c2sc3ccccc3c2c1=O (stereo not drawn)	?	?	5.1%	-17.7%	2.6%
3	CCC(C(=O)NCc1ccccc1)n1nc(C)c2sc3ccccc3c2c1=O (stereo not drawn)	?	?	-23.3%	/	8.6%
4	CCCN1CCN(C(=O)C(C)n2nc(C)c3sc4ccccc4c3c2=O)CC1 (stereo not drawn)	18.4µM*	?	-3.4%	1.0%	4.0%
5	CCC(C(=O)Nc1cc(C(F)(F)F)ccc1Cl)n1nc(C)c2sc3ccccc3c2c1=O (stereo not drawn)	16.4µM*	23.1µM*	-18.0%	/	5.7%
6	CC(=O)NC(C)c1nc2ccccc2n1C(C)C (stereo not drawn)	?	-24.8%	-5.6%	-3.3%	2.6%
7	Cc1ccc(S(=O)(=O)N2CCC(C(=O)OC(C)C(=O)NC3CCCCC3C)CC2)cc1C (stereo not drawn)	-9.7%	?	/	-20.2%	-2.8%
8	N=c1c(C(=O)NCC2CCCO2)cc2c(=O)n3ccccc3nc2n1C1CCCC1 (stereo not drawn)	-21.0%	6.2%	-5.6%	0.1%	-0.6%
9	CCn1cc(C(=O)NCCc2ccccc2)c(=O)c2cc(S(=O)(=O)N3CCc4ccccc4C3)ccc21	20.6µM*	?	-5.1%	/	2.3%
10	CCn1cc(C(=O)NCCc2ccc(C)cc2)c(=O)c2cc(S(=O)(=O)N3CCCCC3)ccc21	-9.5%	-10.2%	-4.1%	/	-2.3%
11	CCCCN(CCCC)CCNC(=O)c1cc(=O)[nH]c2ccc(S(=O)(=O)N3CCCCCC3)cc12	16.4µM*	?	-3.0%	/	0.0%
12	CCCCN(CCCC)CCNC(=O)c1cn(CC)c2ccc(S(=O)(=O)N3CCc4ccccc4C3)cc2c1=O	23.1µM*	20.6µM*	2.7%	-3.3%	7.0%
13	CCn1cc(C(=O)NCCc2ccc(OC)c(OC)c2)c(=O)c2cc(S(=O)(=O)N3CCc4ccccc4C3)ccc21	25.9µM*	?	2.4%	/	2.3%
14	CC(C)CN(CCNC(=O)c1cc(=O)[nH]c2ccc(S(=O)(=O)N3CCCCCC3)cc12)CC(C)C	-6.3%	-23.0%	-1.8%	/	2.6%
15	O=C(NCCSc1ccccc1)c1ccccc1Cl	-15.1%	1.1%	-65.4%	0.1%	-2.7%
16	CC(C)=CC(=O)OCC(=O)Nc1ccc(F)cc1Cl	-20.1%	-93.5%	-15.7%	5.2%	2.0%
17	O=C1NCCC12C(=O)Nc1ccccc12 (stereo not drawn)	-2.9%	4.2%	/	5.9%	/
18	Cc1ccc(-c2c(NCCc3ccccc3)c(=O)c2=O)cc1	-18.5%	0.2%	0.6%	4.1%	/
19	CCn1cc(C(=O)NCCCN2CCCC(C)C2)c(=O)c2cc(S(=O)(=O)N3CCc4ccccc4C3)ccc21 (stereo not drawn)	?	23.1µM*	-2.2%	-13.4%	2.6%
20	CCC1CCCCN1CCCNC(=O)c1cn(CC)c2ccc(S(=O)(=O)N3CCc4ccccc4C3)cc2c1=O (stereo not drawn)	?	?	-4.9%	-11.6%	5.3%
21	CN1C(=O)c2c(sc3c2CCCC3)NC1c1ccccc1O (stereo not drawn)	/	/	-31.6%	/	9.1%
22	CC1CCCC2(C1)NC(=S)c1c(sc3c1CCCC3)N2 (stereo not drawn)	3.66µM*	?	-16.3%	4.1%	3.3%
23	N#Cc1c(Nc2ccccc2)sc(C(=O)c2ccc(F)cc2)c1N	?	-21.7%	-12.0%	?	-2.2%
24	Cc1cc(C)c(C#N)c(Nc2ccccc2Cl)n1	2.2%	5.9%	-0.1%	-0.6%	6.0%
25	N#Cc1c(Nc2ccccc2C(F)(F)F)s[nH]c1=O	20.6µM*	20.6µM*	3.6%	-6.7%	-5.0%
26	N#Cc1c(Nc2ccccc2)s[nH]c1=O	8.2µM*	8.2µM*	1.8%	-8.0%	/
27	N#Cc1c(Nc2ccccc2Cl)s[nH]c1=O	5.17µM*	14.6µM*	1.2%	-8.5%	8.7%
28	COc1ccc(/C=C/C(=O)N(CC(C)C)CC(C)C)cc1Br	16.4µM*	16.4µM*	-4.8%	/	2.6%
29	COCOc1ccc(OC)cc1C(=O)/C=C/c1ccc(OC)c(Br)c1	/	/	/	/	12.5%
30	Cc1[nH]c(=O)c(C#N)cc1-c1ccncc1	0.0596µM*!	?	-18.4%	-4.5%	4.0%

# Later entries
nr	mol	DT40 TDP1 no CPT	DT40 TDP1 CPT	miR-21 reporter	uPA generation	TDP1 block
31	Cc1cc(F)ccc1S(=O)(=O)N1CCCOC1CNC(=O)C(=O)NCC(C)C (stereo not drawn)	-3.2%	-13.1%	-0.7%	10.1%	2.3%
32	Nc1c(C(=O)c2ccc(Cl)cc2)sc2nsc(SCCN3CCOCC3)c12	9.2µM*	4.61µM*	-1.2%	-1.7%	2.5%
33	NC(C(=O)O)c1cc(O)c(Cl)c(O)c1 (stereo not drawn)	-16.4%	-0.7%	/	/	-4.9%
34	COc1cccc(CNC(=O)c2ccc3c(c2)nc2n3CCC(C)C2)c1 (stereo not drawn)	-21.0%	-12.5%	-48.7%	/	5.4%
35	N#CCCn1c(=O)c(-c2ccc(F)cc2)nc2cnc(N3CCNCC3)nc21	20.6µM*	?	/	/	/
36	CN1CCN(c2ncc3nc(-c4ccc(Cl)cc4)c(=O)n(CCC#N)c3n2)CC1	16.4µM*	?	/	/	/
37	N#CCCn1c(=O)c(-c2ccc(Cl)cc2)nc2cnc(N3CCNCC3)nc21	?	7.31µM*	/	/	/
38	CN1CCN(c2ncc3nc(-c4cccc(C#N)c4)c(=O)n(CCC#N)c3n2)CC1	20.6µM*	?	/	/	/
39	COc1ccccc1NS(=O)(=O)c1ccc2c(c1)NC(=O)CC(=O)N2	24.0%	1.7%	6.9%	4.8%	3.7%
40	c1cncc(-c2cncnc2NC2CCNCC2)c1	-12.4%	16.4µM*	/	/	/
41	c1cncc(-c2ccc3ncnc(NC4CCNCC4)c3c2)c1	19.9%	5.7%	/	/	/
42	COc1cc(NC(=O)CCc2c(C)nc3c(-c4ccc(F)cc4)c(C)nn3c2C)cc(OC)c1OC	6.51µM*	5.17µM*	-13.1%	/	4.6%
43	Cc1cccc(CCNC(=O)CCc2c(C)nc3c(-c4ccc(F)cc4)c(C)nn3c2C)c1	9.2µM*	?	0.0%	/	8.1%
44	CC(=O)c1cccc(NC(=O)CCc2c(C)nc3c(-c4ccc(F)cc4)c(C)nn3c2C)c1	?	2.59µM*	5.0%	/	0.0%
45	Nc1cc(Oc2ccc(Cl)cc2Cl)nc(N)n1	-6.9%	-1.0%	-12.9%	-0.1%	5.8%
46	COc1ccc(C(=O)C2CCCN(C(=O)c3cc(C)nc(C)n3)C2)cc1OC (stereo not drawn)	-15.9%	-16.0%	-13.7%	-4.7%	0.0%

# Single records (already shown):
# Record of CC1CCCC2(C1)NC(=S)c1c(sc3c1CCCC3)N2 (stereo not drawn) = DT40 TDP1 no CPT = 3.66µM*; DT40 TDP1 CPT = ?; miR-21 reporter = -16.3%; uPA generation = 4.1%; TDP1 block = 3.3%
# Record of COCOc1ccc(OC)cc1C(=O)/C=C/c1ccc(OC)c(Br)c1 = DT40 TDP1 no CPT = /; DT40 TDP1 CPT = /; miR-21 reporter = /; uPA generation = /; TDP1 block = 12.5%

# Single entries from above.
# miR-21 reporter with no. 31 reads -0.7%
# miR-21 reporter with no. 43 reads 0.0%

# 2 records drawn at random from those above, as already listed:
nr	mol	DT40 TDP1 no CPT	DT40 TDP1 CPT	miR-21 reporter	uPA generation	TDP1 block
31	Cc1cc(F)ccc1S(=O)(=O)N1CCCOC1CNC(=O)C(=O)NCC(C)C (stereo not drawn)	-3.2%	-13.1%	-0.7%	10.1%	2.3%
36	CN1CCN(c2ncc3nc(-c4ccc(Cl)cc4)c(=O)n(CCC#N)c3n2)CC1	16.4µM*	?	/	/	/

# Screening data (PubChem)
